The values below are quoted from earlier work in patent US8846115B2, “Anti-inflammatory cyclooxygenase inhibitors” (Metaproteomics, LLC, priority 2001, dated 2014).

Chains of the proteins cited; added tags and fusions are not shown. Residues count along the entry.
UniProt P23219, 24-599: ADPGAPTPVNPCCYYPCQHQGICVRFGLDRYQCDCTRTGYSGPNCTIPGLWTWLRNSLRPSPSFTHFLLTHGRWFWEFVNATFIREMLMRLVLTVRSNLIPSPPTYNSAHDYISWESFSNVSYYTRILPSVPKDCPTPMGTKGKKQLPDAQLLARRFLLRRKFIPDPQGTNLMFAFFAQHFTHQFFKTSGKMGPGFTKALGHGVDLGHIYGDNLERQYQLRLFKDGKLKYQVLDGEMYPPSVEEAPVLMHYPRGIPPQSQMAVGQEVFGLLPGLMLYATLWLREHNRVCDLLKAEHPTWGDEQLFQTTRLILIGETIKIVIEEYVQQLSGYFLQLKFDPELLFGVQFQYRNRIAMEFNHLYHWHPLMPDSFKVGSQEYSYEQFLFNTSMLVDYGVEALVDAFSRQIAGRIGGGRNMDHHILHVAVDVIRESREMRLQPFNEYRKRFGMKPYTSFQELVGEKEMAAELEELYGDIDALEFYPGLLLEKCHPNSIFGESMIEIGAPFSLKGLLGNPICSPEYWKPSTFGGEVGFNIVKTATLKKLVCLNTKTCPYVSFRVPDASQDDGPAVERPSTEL

In this data set the target is COX-1 (Homo sapiens, UniProt P23219). The following applies: read-out: IC 50 for COX-1 inhibition by the WHMA method; cited from earlier work.

Consider `CS(=O)(=O)c1ccc(C2=C(c3ccccc3)C(=O)OC2)cc1` [rofecoxib], for which the IC50 was 63 µM.
